Biological target: T1, metallo-beta-lactamase (beta-lactamase II) 5/B/6 (Bacillus cereus, UniProt P14488 P14488:30-256)
T1 sequence: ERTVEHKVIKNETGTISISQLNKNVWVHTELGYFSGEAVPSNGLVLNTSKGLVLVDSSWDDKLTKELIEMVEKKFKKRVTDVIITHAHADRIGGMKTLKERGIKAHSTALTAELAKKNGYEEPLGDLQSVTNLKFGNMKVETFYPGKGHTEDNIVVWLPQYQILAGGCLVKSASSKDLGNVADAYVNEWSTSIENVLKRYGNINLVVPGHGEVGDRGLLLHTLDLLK
Assay: inhibition
Conditions: tags: strain 5/B/6; zinc class B enzyme

Binder | IC50
AACCAAACTTGGATCGGTGCACATGTCGAA (ssDNA) [30-mer aptamer] | 1.2 nM
CCAAACTTGG (ssDNA) [10-mer] | 1.2 nM

Reference: patent US20050202434 (published 2005)
